Reference: US20240207285A1 (Melt Pharmaceuticals, Inc., priority 2022, published 2024)

Experiment: Phase 1 relative bioavailability study: plasma pharmacokinetics of midazolam, 1-hydroxymidazolam, ketamine and norketamine
Conditions: Treatment D: ketamine 18 mg IV; mean
Procedure: PK analysis was performed using noncompartmental methods in Phoenix WinNonlin® (Version 8.1, Certara, L.P.) in conjunction with the internet-accessible implementation of the Pharsight® Knowledgebase Server™ (PKSO; Version 4.0.4, Certara, L.P). PKSO provides protected and structured storage, audit trails, and version control for study data, analyses, and related files, supporting 21 CFR Part 11 compliance. The analysis was performed in accordance with the Statistical Analysis Plan (Version 1.0, 5 Jan. 2021).
During the PK analysis, concentrations below the limit of quantitation (BLQ) up to the time of the first quantifiable concentration were treated as zero. Embedded (values between 2 quantifiable concentrations) and terminal BLQ concentrations were treated as “missing”. Calculation of the PK characteristics were based on actual elapsed times [h] (relative to time of dose).
All PK analyses were performed on the data from the PK Analysis Population. […] The ANOVA model included factors for sequence, subject within sequence, treatment, and period.

CNC1(c2ccccc2Cl)CCCCC1=O (stereo not shown) [Ketamine, 2-(2-chlorophenyl)-2-(methylamino)cyclohexanone]
Tlast, ketamine: 23.7 h
